Results from ChEMBL document CHEMBL5360652, “Drug Discovery Targeting Nuclear Receptor Binding SET Domain Protein 2 (NSD2)” (J Med Chem, 2023).

Target: T1, Histone-lysine N-methyltransferase NSD3 (Homo sapiens, UniProt Q9BZ95)
T1 sequence (Q9BZ95 whole entry): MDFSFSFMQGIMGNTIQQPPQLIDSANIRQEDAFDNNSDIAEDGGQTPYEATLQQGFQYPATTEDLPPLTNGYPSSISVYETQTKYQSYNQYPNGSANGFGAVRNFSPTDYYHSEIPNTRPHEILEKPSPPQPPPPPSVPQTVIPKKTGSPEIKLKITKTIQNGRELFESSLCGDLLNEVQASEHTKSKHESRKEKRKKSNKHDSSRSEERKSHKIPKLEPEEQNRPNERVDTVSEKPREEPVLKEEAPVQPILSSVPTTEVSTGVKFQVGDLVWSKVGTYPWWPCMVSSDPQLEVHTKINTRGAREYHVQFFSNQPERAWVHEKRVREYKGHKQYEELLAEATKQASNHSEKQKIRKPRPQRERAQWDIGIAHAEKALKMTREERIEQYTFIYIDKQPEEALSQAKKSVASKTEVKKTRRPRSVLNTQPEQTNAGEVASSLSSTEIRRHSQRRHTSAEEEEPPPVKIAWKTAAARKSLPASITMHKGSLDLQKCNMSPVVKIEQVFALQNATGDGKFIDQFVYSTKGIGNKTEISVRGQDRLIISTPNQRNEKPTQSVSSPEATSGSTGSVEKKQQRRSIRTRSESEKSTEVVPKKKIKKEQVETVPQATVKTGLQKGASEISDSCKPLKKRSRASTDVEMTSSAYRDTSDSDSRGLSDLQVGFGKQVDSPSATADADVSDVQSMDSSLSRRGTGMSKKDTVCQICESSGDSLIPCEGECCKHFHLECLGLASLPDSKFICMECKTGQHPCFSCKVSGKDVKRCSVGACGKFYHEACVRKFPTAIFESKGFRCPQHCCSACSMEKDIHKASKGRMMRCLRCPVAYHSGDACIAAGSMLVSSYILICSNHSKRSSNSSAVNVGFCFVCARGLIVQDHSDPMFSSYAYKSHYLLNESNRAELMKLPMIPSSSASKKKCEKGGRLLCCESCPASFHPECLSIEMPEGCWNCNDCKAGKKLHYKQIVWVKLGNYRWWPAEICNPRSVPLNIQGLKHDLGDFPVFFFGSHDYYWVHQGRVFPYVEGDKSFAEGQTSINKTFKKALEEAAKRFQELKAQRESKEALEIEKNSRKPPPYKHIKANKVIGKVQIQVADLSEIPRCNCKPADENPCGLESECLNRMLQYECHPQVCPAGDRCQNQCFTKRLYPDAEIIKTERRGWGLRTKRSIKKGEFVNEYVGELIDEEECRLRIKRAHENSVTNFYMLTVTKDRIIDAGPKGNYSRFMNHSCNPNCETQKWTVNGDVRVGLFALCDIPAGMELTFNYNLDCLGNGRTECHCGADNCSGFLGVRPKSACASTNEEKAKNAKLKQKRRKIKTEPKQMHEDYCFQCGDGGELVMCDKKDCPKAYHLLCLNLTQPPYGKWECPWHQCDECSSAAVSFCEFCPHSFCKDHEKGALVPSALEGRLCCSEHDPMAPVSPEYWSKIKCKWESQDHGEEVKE
Assay: Binding affinity to human recombinant NSD3 PWWP1 domain assessed as dissociation constant

Cc1cc(CN)cc(C)c1-c1ncn(C)c1-c1ccnc2cc(F)ccc12
Kd: 1700 nM
